## Ab-14 heavy chain CDR variants: yeast mating affinities

Values reported by Engelhart et al. 2022, doi:10.1038/s41597-022-01779-4 (FLAb copy).

Target: peptide PDVDLGDISGINAS, taken from heptad repeat 2 (HR2) of SARS-CoV-2 spike.

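The starting antibody came from a phage panning campaign against this peptide. Library AAYL49 holds single substitutions and randomly drawn double and triple substitutions in the CDRs. Affinity was read by AlphaSeq, a pooled yeast mating assay with surface-displayed partners. Pairs that bind mate more often; barcode pairs of the diploids are counted by sequencing. Scores were corrected for input abundance and mapped to Kd with protein pairs of known affinity run in the same pool. Each pool was mated in three replicate cultures.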

The variants keep the light chain, the linker and the frameworks of Ab-14 (scFv order VH, three GGGGS repeats, VL).
VH: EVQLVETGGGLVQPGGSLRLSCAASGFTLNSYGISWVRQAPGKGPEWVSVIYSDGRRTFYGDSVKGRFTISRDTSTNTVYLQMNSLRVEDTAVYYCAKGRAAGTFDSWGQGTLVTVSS
VL: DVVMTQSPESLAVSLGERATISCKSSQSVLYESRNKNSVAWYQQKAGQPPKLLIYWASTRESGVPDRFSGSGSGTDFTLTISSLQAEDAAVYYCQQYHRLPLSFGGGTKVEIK

Positions count from residue 1 of the parent VH; T28N puts N in place of T. Numbers give log10(Kd / nM), so 0 is 1 nM and 3 is 1 µM. Smaller is tighter. Averages over replicates are reported, and they cover detected replicates only. A pair that was not seen in that replicate is written "n.d."; this usually means weak binding, but a binder can also be missed. Order: sorted from the lowest average up, undetected variants last.

| # | log10 Kd, replicates | mean log10 Kd (nM) | empty controls | changes |
|---|---|---|---|---|
| 1 | 0.04 / 0.39 / 0.16 | 0.20 | 3/9 (4.82) | T28N R56M G99C |
| 2 | 1.63 / 2.31 / 1.07 | 1.67 | 0/9 | S31R G61V |
| 3 | 2.65 / 2.50 / 2.56 | 2.57 | 4/9 (4.29) | Y60N R100E |
| 4 | 2.26 / 2.37 / 3.25 | 2.63 | 5/9 (4.23) | G26D G103P |
| 5 | 2.99 / 2.58 / 2.53 | 2.70 | 4/9 (4.70) | T28M R56C A102Q |
| 6 | n.d. / 3.04 / 3.03 | 3.03 | 4/9 (4.13) | S31P G61A F105T |
| 7 | 3.08 / n.d. / n.d. | 3.08 | 1/9 (4.24) | G26Q S53M Y60Q |
| 8 | 3.33 / n.d. / n.d. | 3.33 | 0/9 | S35I F59W F105D |
| 9 | n.d. / 3.48 / n.d. | 3.48 | 1/9 (5.09) | D62L D106T |
| 10 | n.d. / 3.68 / n.d. | 3.68 | 1/9 (4.81) | G33F G99I A102G |
| 11 | n.d. / 3.75 / n.d. | 3.75 | 1/9 (4.14) | S53W D54R A102F |
| 12 | n.d. / 3.67 / 3.98 | 3.82 | 3/9 (4.80) | N30Y F59W V64Y |
| 13 | 4.00 / n.d. / n.d. | 4.00 | 2/9 (3.32) | F27V R56Y K65T |
| 14 | 3.77 / 4.30 / n.d. | 4.03 | 0/9 | L29S S35F |
| 15 | n.d. / 3.57 / 4.69 | 4.13 | 1/9 (5.19) | G26P T58E D62P |
| 16 | 4.23 / n.d. / n.d. | 4.23 | 0/9 | G26L V64H K65L |
| 17 | 4.31 / n.d. / 4.42 | 4.36 | 2/9 (4.16) | G55I R56F G103S |
| 18 | n.d. / 4.74 / 4.64 | 4.69 | 5/9 (4.49) | G26M R57D G61F |
| 19 | n.d. / 5.30 / 4.41 | 4.85 | 3/9 (4.18) | S35A T58R G61H |
| 20 | n.d. / 5.11 / 4.96 | 5.03 | 6/9 (3.62) | F27N Y32S G103F |
| 21 | n.d. / 5.32 / n.d. | 5.32 | 0/9 | F27D S35E A102G |
| 22 | 5.42 / n.d. / n.d. | 5.42 | 0/9 | G33S I51H Y60R |
| 23 | 6.05 / n.d. / n.d. | 6.05 | 3/9 (4.81) | G55E F105H |
| 24 | n.d. / n.d. / n.d. | n.d. | 1/9 (4.38) | T58H Y60M F105L |
| 25 | n.d. / n.d. / n.d. | n.d. | 1/9 (4.63) | T58L G61I D106F |
| 26 | n.d. / n.d. / n.d. | n.d. | 2/9 (4.02) | G55W R56K A102H |
| 27 | n.d. / n.d. / n.d. | n.d. | 0/9 | N30K K65E F105Y |
| 28 | n.d. / n.d. / n.d. | n.d. | 2/9 (4.34) | S35C G103V D106Y |
| 29 | n.d. / n.d. / n.d. | n.d. | 0/9 | T28P N30C F105Q |
| 30 | n.d. / n.d. / n.d. | n.d. | 0/9 | Y52W R57Y T104V |
| 31 | n.d. / n.d. / n.d. | n.d. | 1/9 (4.66) | Y32W I34E A102R |
| 32 | n.d. / n.d. / n.d. | n.d. | 0/9 | G33M V64G |
| 33 | n.d. / n.d. / n.d. | n.d. | 1/9 (2.90) | G26M L29N A102I |
| 34 | n.d. / n.d. / n.d. | n.d. | 0/9 | G26H S53E S107R |
| 35 | n.d. / n.d. / n.d. | n.d. | 0/9 | S31G G33P |
| 36 | n.d. / n.d. / n.d. | n.d. | 1/9 (3.38) | I34T V64M A102D |
| 37 | n.d. / n.d. / n.d. | n.d. | 0/9 | F27K T28L D54L |
| 38 | n.d. / n.d. / n.d. | n.d. | 1/9 (3.78) | L29P S53K T58E |
| 39 | n.d. / n.d. / n.d. | n.d. | 0/9 | G33A G55T D62Y |
| 40 | n.d. / n.d. / n.d. | n.d. | 1/9 (3.62) | L29I Y60I A102H |
| 41 | n.d. / n.d. / n.d. | n.d. | 0/9 | T28M R56D D62L |
| 42 | n.d. / n.d. / n.d. | n.d. | 0/9 | I51G Y52P Y60D |
| 43 | n.d. / n.d. / n.d. | n.d. | 2/9 (4.12) | G26W N30Y G55V |
| 44 | n.d. / n.d. / n.d. | n.d. | 0/9 | F27S Y52P |
| 45 | n.d. / n.d. / n.d. | n.d. | 2/9 (3.53) | D54G D62P K65H |
| 46 | n.d. / n.d. / n.d. | n.d. | 0/9 | D54V A101Y F105C |
| 47 | n.d. / n.d. / n.d. | n.d. | 0/9 | G55L R57Y G99F |
| 48 | n.d. / n.d. / n.d. | n.d. | 0/9 | Y32T R57W V64A |
| 49 | n.d. / n.d. / n.d. | n.d. | 1/9 (3.40) | V50A I51E G61K |
| 50 | n.d. / n.d. / n.d. | n.d. | 1/9 (3.63) | Y32M Y52C S53K |
| 51 | n.d. / n.d. / n.d. | n.d. | 0/9 | F27D Y52I R57L |

Excerpt, the first 5 entries:

| changes | log10 Kd, replicates | mean log10 Kd (nM) | empty controls |
|---|---|---|---|
| T28N R56M G99C | 0.04 / 0.39 / 0.16 | 0.20 | 3/9 (4.82) |
| S31R G61V | 1.63 / 2.31 / 1.07 | 1.67 | 0/9 |
| Y60N R100E | 2.65 / 2.50 / 2.56 | 2.57 | 4/9 (4.29) |
| G26D G103P | 2.26 / 2.37 / 3.25 | 2.63 | 5/9 (4.23) |
| T28M R56C A102Q | 2.99 / 2.58 / 2.53 | 2.70 | 4/9 (4.70) |

In this assay the parent's reference entry averaged 0.65; its copy inside this library read 4.11 (one replicate of three). As a blank, each scFv also met three strains without target: over library AAYL49, 15% of these pairings were detected, typically at 4.06 and seldom below 2.83. Also given: how often the same scFv was detected with the empty control strains, with their mean in brackets.